Patent US20070299113A1, “Metabotropic glutamate receptor modulators” (MERZ PHARMA GMBH & CO. KGAA, priority 2006, published 2007)

Protein sequences, listed by entry. Tags and fused reporters are not part of them. Residues count along the entry.
UniProt P31424, 21-1203: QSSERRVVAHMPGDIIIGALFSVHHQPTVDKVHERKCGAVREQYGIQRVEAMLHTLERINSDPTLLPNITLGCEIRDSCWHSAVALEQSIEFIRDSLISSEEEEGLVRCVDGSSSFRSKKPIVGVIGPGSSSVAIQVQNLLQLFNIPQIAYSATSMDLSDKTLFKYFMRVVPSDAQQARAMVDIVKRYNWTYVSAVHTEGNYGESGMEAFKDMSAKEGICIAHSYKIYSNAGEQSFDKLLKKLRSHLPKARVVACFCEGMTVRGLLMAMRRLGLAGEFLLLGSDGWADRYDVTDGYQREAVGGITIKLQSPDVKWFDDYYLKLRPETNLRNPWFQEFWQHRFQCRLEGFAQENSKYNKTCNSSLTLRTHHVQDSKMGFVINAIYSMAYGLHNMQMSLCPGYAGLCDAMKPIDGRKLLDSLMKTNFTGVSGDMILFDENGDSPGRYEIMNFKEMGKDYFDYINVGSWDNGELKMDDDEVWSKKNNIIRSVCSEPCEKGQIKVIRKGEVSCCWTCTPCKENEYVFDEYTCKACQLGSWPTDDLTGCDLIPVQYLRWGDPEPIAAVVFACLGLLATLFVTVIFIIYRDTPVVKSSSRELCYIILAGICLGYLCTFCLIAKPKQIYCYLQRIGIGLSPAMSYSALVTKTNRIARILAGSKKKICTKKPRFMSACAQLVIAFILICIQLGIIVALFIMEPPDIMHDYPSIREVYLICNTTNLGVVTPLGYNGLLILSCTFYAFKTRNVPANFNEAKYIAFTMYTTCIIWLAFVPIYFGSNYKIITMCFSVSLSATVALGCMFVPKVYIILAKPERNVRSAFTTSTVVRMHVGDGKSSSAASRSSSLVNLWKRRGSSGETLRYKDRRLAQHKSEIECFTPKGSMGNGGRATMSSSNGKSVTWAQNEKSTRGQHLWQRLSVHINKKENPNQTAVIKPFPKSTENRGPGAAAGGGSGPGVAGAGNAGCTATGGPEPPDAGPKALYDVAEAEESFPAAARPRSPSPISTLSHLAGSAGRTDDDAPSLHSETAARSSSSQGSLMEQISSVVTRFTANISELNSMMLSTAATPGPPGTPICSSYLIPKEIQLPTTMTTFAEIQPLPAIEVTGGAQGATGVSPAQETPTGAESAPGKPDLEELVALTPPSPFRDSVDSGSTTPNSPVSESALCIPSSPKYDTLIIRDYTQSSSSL

Target: T1, transmembrane allosteric modulatory sites of mGluR5 receptors (Rattus norvegicus, UniProt P31424)
T1 construct: The cortex is dissected and homogenized in 20 volumes of ice-cold 0.32 M sucrose; from tissue; host or cells: rat cerebral cortex membranes (male Sprague-Dawley)
Assay: [^3H]MPEP binding to mGluR5 receptors in rat cortical membranes
Description: [^3H]MPEP (2-methyl-6-(phenylethynyl)pyridine) Binding to Transmembrane Allosteric Modulatory Sites of mGluR5 Receptors in Cortical Membranes
Male Sprague-Dawley rats (200-250 g) are decapitated and their brains are removed rapidly. The cortex is dissected and homogenized in 20 volumes of ice-cold 0.32 M sucrose using a glass-Teflon homogenizer. The homogenate is centrifuged at 1000×g for 10 min. The pellet is discarded and the supernatant centrifuged at 20,000×g for 20 min. The resulting pellet is re-suspended in 20 volumes of distilled water and centrifuged for 20 min at 8000×g. Then the supernatant and the buffy coat are centrifuged at 48,000×g for 20 min in the presence of 50 mM Tris-HC, pH 8.0. The pellet is then re-suspended and centrifuged two to three more times at 48,000×g for 20 min in the presence of 50 mM Tris-HCl, pH 8.0. All centrifugation steps are carried out at 4° C. After resuspension in 5 volumes of 50 mM Tris-HCl, pH 8.0 the membrane suspension is frozen rapidly at −80° C.
On the day of assay the membranes are thawed and washed four times by resuspension in 50 mM Tris-HCI, pH 8.0 and centrifugation at 48,000×g for 20 min. and finally re-suspended in 50 mM Tris-HCl, pH 7.4. The amount of protein in the final membrane preparation (250-500 μg/ml) is determined according to the method of Lowry (Lowry O. H. et al., 1951, J. Biol. Chem., 193, 256-275).
Incubations are started by adding (^3H)-MPEP (50.2 Ci/mmol, 5 nM, Tocris) to vials with 125-250 μg protein (total volume 0.5 ml) and various concentrations of the agents. The incubations are continued at room temperature for 60 min (equilibrium is achieved under the conditions used). Non-specific binding is defined by the addition of unlabeled MPEP (10 μM). Incubations are terminated using a Millipore filter system. […] Following separation and rinse, the filters are placed into scintillation liquid (5 ml Ultima Gold) and radioactivity retained on the filters is determined with a conventional liquid scintillation counter (Hewlett Packard, Liquid Scintillation Analyser). […]

Row | Compound | IC50 (5 nM (^3H)-MPEP, room temperature, 60 min, read-out: IC50 for displacement of hot ligand ([^3H]MPEP)) | Ki (calculated with Kd of (^3H)-MPEP of 13.6 nM, read-out: Ki (IC50 of cold MPEP equated by Cheng Prussoff relationship)) | Kd (read-out: Kd determined by Scatchard analysis)
1 | Cc1cccc(C#Cc2ccccc2)n1 [MPEP, 2-methyl-6-(phenylethynyl)pyridine] | 0.0188 ± 0.0041 µM | 0.0137 µM | –
2 | Cc1cccc(C#Cc2ccccc2)n1 [(^3H)-MPEP, 2-methyl-6-(phenylethynyl)pyridine] | – | – | 0.0136 µM
